48 compounds from PubChem BioAssay AID2112 (National Center for Advancing Translational Sciences (NCATS), 2009) can be followed below.

Only a part is listed here, and it is no random draw. Active and inactive are the calls of the source. Calls come from the whole dose curve; as a rule, active = well fitted inhibition curve with a large enough effect; inconclusive = small, poorly fitted or top-dose-only effect, or effect the other way, or another doubt; inactive = no such curve, though single readings can be large or run the other way.

The target in the assay is Lysosomal alpha-glucosidase (Homo sapiens) (UniProt P10253). The experiment in a line: qHTS Assay for Inhibitors and Activators of Human alpha-Glucosidase From Spleen Homogenate.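 Note: 0% = enzyme with vehicle and -100% = no enzyme basal signal.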 As to conditions: 4-MU-alpha-glucoside fluorescence; at 79.9 µM (top of the series) unless noted. From the text: NIH Chemical Genomics Center [NCGC] NIH Molecular Libraries Probe Production Centers Network [MLPCN] MLPCN Grant: R03 MH084841-01 Assay Submitter (PI): Wei Zheng NCGC Assay Overview: Alpha-glucosidase is responsible for the hydrolysis of terminal, non-reducing 1,4-linked alpha-D-glucose residues, which releases alpha-D-glucose. It is a lysosomal hydrolase that is required for the degradation of a small percentage (1-3%) of cellular glycogen in humans. Deficiency of this enzyme results in glycogen-storage disease type II (GSDII), also referred to as Pompe disease, an autosomal recessive disorder. Structurally normal glycogen is accumulated in the lysosomes and cytoplasm in affected patients, primarily in muscle tissues. Excessive glycogen storage within lysosomes may interrupt normal functioning of other organelles and leads to cellular injury. In turn, this leads to enlargement and dysfunction of the entire organ involved (eg: cardiomyopathy and muscle weakness). It has been reported that the improper folding and trafficking of alpha-glucosidase resulting from genetic mutations may account for a significant number of Pompe patients. […] We optimized this alpha-glucosidase assay in 1536-well plate format for identification of novel small molecule inhibitors or activators with structures other than the sugar analogs in order to develop new pharmacological chaperones. In particular, this assay is directed towards discovering compounds active in a more natural setting, tissue homogenate, that may have been missed by screens of the purified enzyme under more stringent conditions.
NCGC Assay Protocol Summary: This is a fluorogenic enzyme assay with 4-methylumbelliferyl-alpha-D-glucopyranoside as the substrate and human spleen homogenate containing alpha-glucosidase as the enzyme preparation. Upon hydrolysis of this fluorogenic substrate, the resulting product, 4-methylumbelliferone (which excites at 365 nm and emits at 440 nm) can be detected by a fluorescence plate reader. Data were normalized to the controls for basal activity (without enzyme) and 100% activity (with enzyme). The AC50 values were determined from concentration-response data modeled with the standard Hill equation. Assay buffer: 50 mM citric acid (titrated with potassium phosphate to pH 5.0), 0.01% Tween-20 (pH 5.0 is an optimal condition for this enzyme assay) 1536-well assay protocol for the alpha-glucosidase from human spleen homogenate: (1) Add 2 ul/well spleen homogenate (1 ug) (2) Add 23 nL compounds in DMSO solution. The final titration was 0.5 nM to 58 uM. (3) Add 2 ul of substrate (1 mM final) (4) Incubate at 37 C for 40 min (5) Add 2 ul stop solution (1M NaOH and 1M Glycine mixture, pH 10) (6) Detect the assay plate in a ViewLux plate reader (PerkinElmer) with Ex=365 nm and Em=440nm. Keywords: Alpha-glucosidase, Pompe Disease, pharmacological chaperone, chaperone therapy, high throughput screening, alpha-glucosidase inhibitor, MLSMR, MLSCN, NIH Roadmap, qHTS and NCGC
In general terms: qHTS replaces the single test concentration by a dilution series.
With `Cc1cc(-c2cccc3ccccc23)c(C)cn1.O=[N+]([O-])c1cc([N+](=O)[O-])c(O)c([N+](=O)[O-])c1`, the activity change, negative = inhibition was inactive: 4.9%.

`O=[N+]([O-])c1ccc(OP2(=O)COCCO2)cc1` (stereo not drawn): the activity change, negative = inhibition is inactive: 0.019%.

As for `COc1ccc(NP(C)(=O)Oc2ccccc2OC)cc1` (stereo not drawn), the activity change, negative = inhibition is inactive: 2.59%.

As to `CN(C)CCOC(=O)C(O)(c1ccccc1)C1CCCCC1` (stereo not drawn), the activity change, negative = inhibition is inactive: -6.64%.

Turning to `COc1ccc(OP(C)(=O)Nc2cccc(Br)c2)cc1` (stereo not drawn), the activity change, negative = inhibition was inactive: -2.56%.

As to `CP(=O)(Nc1ccc(SC(F)(F)F)cc1)Oc1ccccc1` (stereo not drawn), the activity change, negative = inhibition is inactive: 7.27%.

Regarding `CCCOc1ccc(NP(C)(=O)Oc2ccc(Cl)cc2)cc1` (stereo not drawn), the activity change, negative = inhibition was inactive: 4.14%.

With `COc1ccccc1OP(C)(=O)Nc1c(C)cccc1C` (stereo not drawn), the activity change, negative = inhibition is inactive: -9.46%.

Regarding `CN1CCCCC1COC(=O)C1(O)c2ccccc2CCc2ccccc21` (stereo not drawn), the activity change, negative = inhibition is inactive: -1.86%.

As to `O=[N+]([O-])c1cc([N+](=O)[O-])c(Nc2nnnn2CCO)c([N+](=O)[O-])c1`, the activity change, negative = inhibition was inactive: -2.4%.

For the compound `Cc1nc2ccc3ccccc3c2s1.O=[N+]([O-])c1cc([N+](=O)[O-])c(O)c([N+](=O)[O-])c1`, the activity change, negative = inhibition was inactive: -13.5%.

Turning to `CC(C)N(CCCl)C(C)C`, the activity change, negative = inhibition is inactive: -2.45%.

`O=[N+]([O-])c1cc([N+](=O)[O-])c(-n2nnc3ccccc32)c([N+](=O)[O-])c1`: the activity change, negative = inhibition is inactive: 8.21%.

As for `CP(=O)(Nc1cccc(Br)c1)Oc1ccccc1` (stereo not drawn), the activity change, negative = inhibition was inactive: 18.1%.

On to `Cc1cc(C)cc(OP(C)(=O)Nc2ccccn2)c1` (stereo not drawn), for which the activity change, negative = inhibition was inactive: -1.23%.

For the compound `Cc1ccc(C)c(NP(C)(=O)Oc2ccccc2)c1` (stereo not drawn), the activity change, negative = inhibition is inactive: -0.575%.

For the compound `Cc1cc(C)cc(OP(C)(=O)Nc2ccc(C)cc2C)c1` (stereo not drawn), the activity change, negative = inhibition was inactive: -6.5%.

Take `CCOC(=O)c1ccc(NP(C)(=O)Oc2cc(C)cc(C)c2)cc1` (stereo not drawn): the activity change, negative = inhibition was inactive: -6.5%.

With `COc1ccccc1OP(C)(=O)Nc1cccc(Br)c1` (stereo not drawn), the activity change, negative = inhibition was inactive: -2.88%.

For the compound `O=[N+]([O-])OCC(CO[N+](=O)[O-])(CO[N+](=O)[O-])CO[N+](=O)[O-]`, the activity change, negative = inhibition was inactive: -5.12%.

Regarding `Cc1ccc([N+](=O)[O-])cc1[N+](=O)[O-]`, the activity change, negative = inhibition was inactive: 4.39%.

On to `CC1=NCCc2c1[nH]c1ccccc21.O=[N+]([O-])c1cc([N+](=O)[O-])c(O)c([N+](=O)[O-])c1`, for which the activity change, negative = inhibition is inactive: -7.55%.

On to `O=[N+]([O-])c1cccc([N+](=O)[O-])c1`, for which the activity change, negative = inhibition is inactive: 8.61%.

Consider `COc1ccccc1OP(C)(=O)Nc1cc(Cl)ccc1C` (stereo not drawn), for which the activity change, negative = inhibition is inactive: 3.61%.

For `COc1ccc(OP(C)(=O)Nc2cccc(F)c2)cc1` (stereo not drawn), the activity change, negative = inhibition is inactive: -6.42%.

Consider `Cc1cc(C)cc(OP(C)(N)=O)c1` (stereo not drawn), for which the activity change, negative = inhibition is inactive: 11.3%.

On to `CCOC(=O)c1ccc(NP(C)(=O)Oc2ccccc2)cc1` (stereo not drawn), for which the activity change, negative = inhibition is inactive: -2.91%.

Turning to `COc1ccccc1OP(C)(=O)Nc1ccc(C)cc1` (stereo not drawn), the activity change, negative = inhibition is inactive: -5%.

Consider `Cc1ccc(NP(C)(=O)Oc2ccccc2)c(C)c1` (stereo not drawn), for which the activity change, negative = inhibition was inactive: 0.407%.

For `CC(C)(C)c1ccc(OP(C)(=O)Nc2ccc(SC(F)(F)F)cc2)cc1` (stereo not drawn), the activity change, negative = inhibition was inactive: -5.18%.

Take `O=C(O)C(O)(c1ccccc1)c1ccccc1`: the activity change, negative = inhibition was inactive: -0.393%.

In the case of `Cc1cccc(C)c1OP(C)(N)=O` (stereo not drawn), the activity change, negative = inhibition is inactive: -4.2%.

`O=[N+]([O-])c1ccc2c(c1)C=Nc1ccccc1O2`: the activity change, negative = inhibition is inactive: -2.89%.

Take `O=C(O)C1(O)c2ccccc2-c2ccccc21`: the activity change, negative = inhibition is inactive: 1.62%.

As to `O=[N+]([O-])[O-].[NH4+]`, the activity change, negative = inhibition was inactive: -1.89%.

Take `CCN(CC)CCCOC(=O)C(O)(c1ccccc1)c1ccccc1`: the activity change, negative = inhibition was inactive: 8.13%.

Turning to `CP(=O)(Nc1ccccn1)Oc1ccc(Cl)cc1` (stereo not drawn), the activity change, negative = inhibition is inactive: -7.37%.

Consider `CCOP(C)(=S)SCC(=O)NC(C)C(=O)O` (stereo not drawn), for which the activity change, negative = inhibition is inactive: 7.53%.

In the case of `CCOC(=O)c1ccc(NP(C)(=O)Oc2ccc(OC)cc2)cc1` (stereo not drawn), the activity change, negative = inhibition was inactive: -10.5%.

On to `CCc1ccc(OP(C)(=O)N2CCN(c3ccc([N+](=O)[O-])cc3)CC2)cc1` (stereo not drawn), for which the activity change, negative = inhibition was inactive: 7.82%.

Take `CP(=O)(NC(=O)Nc1ccccc1)Oc1ccccc1` (stereo not drawn): the activity change, negative = inhibition is inactive: -5.9%.

Take `Cc1cc(C)cc(OP(C)(=O)Nc2ccc(SC(F)(F)F)cc2)c1` (stereo not drawn): the activity change, negative = inhibition is inactive: -0.0424%.

As to `Cc1cccc(C)c1OP(C)(=O)Nc1ccc(SC(F)(F)F)cc1` (stereo not drawn), the activity change, negative = inhibition is inactive: -17.2%.

Regarding `CP(=O)(Nc1ccc(SC(F)(F)F)cc1)Oc1ccc(Cl)cc1` (stereo not drawn), the activity change, negative = inhibition is inactive: 3.27%.

Take `CP(=O)(Oc1ccccc1)OC(c1ccccc1)C(F)(F)F` (stereo not drawn): the activity change, negative = inhibition is inactive: -0.274%.

Turning to `COc1ccccc1OP(C)(=O)Nc1ccccc1` (stereo not drawn), the activity change, negative = inhibition was inactive: -1.65%.

Take `CP(=O)(Nc1ccccc1Br)Oc1ccccc1` (stereo not drawn): the activity change, negative = inhibition was inactive: 1.98%.

For the compound `CP(=S)(Nn1cnnc1)Oc1ccccc1` (stereo not drawn), the activity change, negative = inhibition is inactive: -7.71%.
